Chains of the proteins cited; added tags and fusions are not shown. Lines headed by an entry give the natural chain unless they say otherwise; changes in a name come on top.
UniProt P08482: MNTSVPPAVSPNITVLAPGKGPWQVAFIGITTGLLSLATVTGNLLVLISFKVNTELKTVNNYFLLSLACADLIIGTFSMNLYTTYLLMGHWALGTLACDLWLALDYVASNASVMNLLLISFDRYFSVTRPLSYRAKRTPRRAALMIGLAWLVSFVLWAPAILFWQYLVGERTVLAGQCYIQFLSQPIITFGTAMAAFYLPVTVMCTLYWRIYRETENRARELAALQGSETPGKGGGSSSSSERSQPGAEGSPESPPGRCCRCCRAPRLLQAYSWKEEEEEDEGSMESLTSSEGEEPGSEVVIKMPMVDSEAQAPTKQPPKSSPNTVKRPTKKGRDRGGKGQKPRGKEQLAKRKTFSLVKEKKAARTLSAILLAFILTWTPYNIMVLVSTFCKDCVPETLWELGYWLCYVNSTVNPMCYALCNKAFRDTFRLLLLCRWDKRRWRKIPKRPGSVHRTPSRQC

According to PMC2893246 (Assay and drug development technologies, 2010):

Target: murine M1 muscarinic acetylcholine receptor (Rattus norvegicus, UniProt P08482)
Assay: cell-based

CC(C)[N+]1(C)[C@@H]2CC[C@H]1C[C@@H](OC(=O)C(CO)c1ccccc1)C2 (stereo partly shown) [Ipratropium, ipratropium]
IC50: 5.9 nM
